Assay results published in ChEMBL document CHEMBL1143255, “Standard protecting groups create potent and selective kappa opioids: salvinorin B alkoxymethyl ethers” (Bioorg Med Chem, 2008).

By UniProt entry, the sequences of proteins in these tests, tags left out. Where a name states a change or a piece, a line headed by the entry shows the natural chain unless it says otherwise.
UniProt P33535, whole entry, looked up: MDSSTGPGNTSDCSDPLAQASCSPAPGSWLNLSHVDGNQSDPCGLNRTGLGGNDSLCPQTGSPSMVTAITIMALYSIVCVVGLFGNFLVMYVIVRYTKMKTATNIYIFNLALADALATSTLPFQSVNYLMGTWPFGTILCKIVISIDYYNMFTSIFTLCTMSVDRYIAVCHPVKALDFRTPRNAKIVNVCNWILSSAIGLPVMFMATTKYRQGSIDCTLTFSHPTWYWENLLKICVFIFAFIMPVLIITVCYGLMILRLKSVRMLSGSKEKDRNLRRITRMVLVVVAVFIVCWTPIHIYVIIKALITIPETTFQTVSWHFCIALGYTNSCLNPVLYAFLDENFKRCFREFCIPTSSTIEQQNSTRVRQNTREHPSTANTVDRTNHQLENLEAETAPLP
UniProt P32300, whole entry, looked up: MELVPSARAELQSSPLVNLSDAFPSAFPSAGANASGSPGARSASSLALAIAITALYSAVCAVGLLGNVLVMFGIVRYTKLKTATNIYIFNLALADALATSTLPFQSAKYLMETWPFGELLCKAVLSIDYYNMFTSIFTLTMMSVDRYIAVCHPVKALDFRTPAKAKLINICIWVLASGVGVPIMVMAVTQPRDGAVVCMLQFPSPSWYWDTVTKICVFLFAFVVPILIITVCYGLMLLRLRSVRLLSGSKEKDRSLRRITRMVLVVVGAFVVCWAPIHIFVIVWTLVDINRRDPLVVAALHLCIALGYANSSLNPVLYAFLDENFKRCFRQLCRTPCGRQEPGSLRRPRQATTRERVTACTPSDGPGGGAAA
UniProt P41145: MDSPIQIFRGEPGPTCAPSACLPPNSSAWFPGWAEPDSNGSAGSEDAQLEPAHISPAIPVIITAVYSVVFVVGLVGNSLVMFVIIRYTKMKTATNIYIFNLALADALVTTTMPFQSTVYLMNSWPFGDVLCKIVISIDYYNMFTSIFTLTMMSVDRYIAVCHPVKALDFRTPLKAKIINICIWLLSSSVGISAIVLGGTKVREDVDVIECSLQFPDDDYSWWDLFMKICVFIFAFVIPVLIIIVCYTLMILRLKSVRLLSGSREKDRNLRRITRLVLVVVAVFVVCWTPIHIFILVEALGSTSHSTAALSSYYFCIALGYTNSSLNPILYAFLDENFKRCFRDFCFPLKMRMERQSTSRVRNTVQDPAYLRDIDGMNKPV

Key:
Mu-type opioid receptor = Mu-type opioid receptor (Rattus norvegicus, UniProt P33535); test: Displacement of [3H]diprenorphine from rat mu opioid receptor expressed in CHO cells
[1] = target: Delta-type opioid receptor (Mus musculus, UniProt P32300); test: Displacement of [3H]diprenorphine from mouse delta opioid receptor expressed in CHO cells
[2] = target: T1, Kappa-type opioid receptor (Homo sapiens, UniProt P41145); test: Displacement of [3H]diprenorphine from human kappa opioid receptor expressed in CHO cells
[3] = target: T1, Kappa-type opioid receptor; test: Agonist activity at human kappa opioid receptor expressed in CHO cells assessed as stimulation of [35S]GTPgammaS binding

Compound	Ki (Mu-type opioid receptor) [nM]	Ki [1] [nM]	Ki [2] [nM]	EC50 [3] [nM]
CN(C(=O)Cc1ccc(Cl)c(Cl)c1)C1CCCCC1N1CCCC1 (stereo not drawn)	> 1000	> 1000	–	–
COC(=O)[C@@H]1C[C@H](OC(C)=O)C(=O)[C@H]2[C@@]1(C)CC[C@H]1C(=O)O[C@H](c3ccoc3)C[C@]21C	> 1000	> 1000	–	–
COCO[C@H]1C[C@@H](C(=O)OC)[C@]2(C)CC[C@H]3C(=O)O[C@H](c4ccoc4)C[C@]3(C)[C@H]2C1=O	> 1000	> 1000	0.6	0.4
